The source of these data is patent US6583179B2, “Substituted aminoalkylamide derivatives as antagonists of follicle stimulating hormone” (Ortho-McNeil Pharmaceutical, Inc., priority 1999, dated 2003).

Amino acid sequences for entries named in this document (tags omitted). Residues count along the entry.
UniProt P23945, 18-695 limits assumed: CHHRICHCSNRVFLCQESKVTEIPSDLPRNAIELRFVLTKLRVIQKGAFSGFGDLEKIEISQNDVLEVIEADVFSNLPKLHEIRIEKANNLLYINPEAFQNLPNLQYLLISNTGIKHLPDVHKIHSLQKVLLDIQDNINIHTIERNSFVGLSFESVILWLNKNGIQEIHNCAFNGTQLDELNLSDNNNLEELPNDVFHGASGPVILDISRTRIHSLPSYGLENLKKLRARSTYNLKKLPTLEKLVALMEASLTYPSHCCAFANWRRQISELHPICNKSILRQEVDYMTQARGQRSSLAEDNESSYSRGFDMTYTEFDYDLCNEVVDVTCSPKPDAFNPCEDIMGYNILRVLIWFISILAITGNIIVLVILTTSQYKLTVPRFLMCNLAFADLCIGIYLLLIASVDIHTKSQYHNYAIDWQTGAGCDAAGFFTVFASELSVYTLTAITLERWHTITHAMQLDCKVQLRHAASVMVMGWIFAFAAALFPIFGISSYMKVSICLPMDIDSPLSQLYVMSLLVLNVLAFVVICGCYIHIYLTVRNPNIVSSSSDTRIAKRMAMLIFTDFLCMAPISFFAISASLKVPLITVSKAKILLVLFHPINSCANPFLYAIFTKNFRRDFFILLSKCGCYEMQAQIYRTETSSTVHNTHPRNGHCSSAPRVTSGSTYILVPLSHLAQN

The target in this test is human FSH receptor (Homo sapiens, UniProt P23945). The test is described as follows: hFSHR CHO cAMP assay (rhFSHR-cLUC cells, FSH-stimulated cAMP, radioimmunoassay). Particulars: read-out: EC50 hFSHR CHO cAMP; inhibition of cAMP produced by EC70 dose of FSH (4.85 nM); maximum concentration 50 μM.
As usually defined, the EC50 is the midpoint of the concentration-response curve. Regarding `CCC(CN(CC(=O)NCCCCCCN)S(=O)(=O)c1ccc(-c2ccccc2Cl)cc1)c1ccccc1` (stereo not drawn), the EC50 came out at 140 nM.
With `COc1ccc(-c2ccc(S(=O)(=O)N(CCc3ccccc3OC)CC(=O)N3CCNCC3)cc2)c(OC)c1` the figure was 12600 nM.
Regarding `COc1ccccc1CCN(CC(=O)NCc1ccc(CN)cc1)S(=O)(=O)c1ccccc1-c1cccc(C#N)c1`, the EC50 is not below 50000 nM.
As for `NCc1ccc(CNC(=O)CN(CCc2ccccc2Cl)S(=O)(=O)c2ccc(-c3ccccc3Cl)cc2)cc1`, the EC50 is 220 nM.
On to `COc1ccccc1CN(CC(=O)N1CCNCC1)S(=O)(=O)c1ccc(-c2cccc3ccccc23)cc1`, for which the EC50 was not below 50000 nM.
In the case of `CC(CN(CC(=O)NCc1ccc(CN)cc1)S(=O)(=O)c1ccc(-c2ccccc2Cl)cc1)c1ccc(Cl)cc1` (stereo not drawn), the EC50 turned out to be 310 nM.
As for `C[C@@H](CN(CC(=O)NCc1ccc(CN)cc1)S(=O)(=O)c1ccc(-c2cc(C(F)(F)F)cc(C(F)(F)F)c2)cc1)c1ccccc1`, the EC50 was more than 50000 nM.
Regarding `COc1ccccc1CN(CC(=O)NCC1CCC(CN)CC1)S(=O)(=O)c1cccc(Cl)c1Cl` (single isomer, unassigned) [402], the half-maximal effective concentration (EC50) worked out at 5360 nM.
With `CSc1ccc(-c2ccc(S(=O)(=O)N(CC(=O)NCc3ccc(CN)cc3)C[C@H](C)c3ccccc3)cc2)cc1`, the concentration giving a half-maximal response (EC50) stood at 1220 nM.
Turning to `COc1ccccc1CCN(CC(=O)NCc1ccc(CN)cc1)S(=O)(=O)c1cccc(-c2ccc(C)cc2)c1`, the EC50 was found to be 6860 nM.
With `C[C@@H](CN(CC(=O)NCc1ccc(CN)cc1)S(=O)(=O)c1ccc(-c2ccc(Cl)cc2)cc1)c1ccccc1` the figure was 4750 nM.
Turning to `CC(C)(CN(CC(=O)NCc1ccc(CN)cc1)S(=O)(=O)c1ccc(-c2ccccc2Cl)cc1)c1ccccc1`, the EC50 amounted to 21900 nM.
With `C[C@H](CN(CC(=O)NCCCCCN)S(=O)(=O)c1ccc(-c2ccccc2Cl)cc1)c1ccccc1` the figure was 610 nM; with `NCc1ccc(CNC(=O)CN(CCc2ccccc2C(F)(F)F)S(=O)(=O)c2ccc(-c3ccccc3Cl)cc2)cc1`, 1080 nM; with `CCCCc1ccc(S(=O)(=O)N(CC(=O)NCc2ccc(CN)cc2)C[C@H](C)c2ccccc2)cc1`, 5980 nM.
As for `COc1ccccc1CCN(CC(=O)NCc1ccc(CN)cc1)S(=O)(=O)c1ccc(-c2ccc(Cl)cc2Cl)s1`, the EC50 is not below 50000 nM.
With `COc1ccccc1CN(CC(=O)N1CCNCC1)S(=O)(=O)c1ccc(-c2cccc(Cl)c2)cc1` the figure was not below 50000 nM; with `CC(C)c1ccc(S(=O)(=O)N(CC(=O)NCc2ccc(CN)cc2)C[C@H](C)c2ccccc2)cc1`, 1000 nM.
With `C[C@@H](CN(CC(=O)NCc1ccc(CN)cc1)S(=O)(=O)c1ccc(-c2cccc(Cl)c2)cc1)c1ccccc1` [418] the figure was 850 nM; with `Cc1ccccc1-c1ccc(S(=O)(=O)N(CC(=O)NCc2ccc(CN)cc2)C[C@H](C)c2ccccc2)cc1` [415], 720 nM.
Regarding `COc1ccccc1C(C)CN(CC(=O)NCc1ccc(CN)cc1)S(=O)(=O)c1ccc(-c2ccccc2Cl)cc1` (stereo not drawn), the EC50 is 1000 nM.
With `COc1ccccc1CCN(CC(=O)NCc1ccc(CN)cc1)S(=O)(=O)c1ccccc1-c1ccccc1C(F)(F)F` the figure was 3510 nM.
With `COc1ccc(OC)c(-c2ccc(S(=O)(=O)N(CCc3ccccc3OC)CC(=O)NCc3ccc(CN)cc3)s2)c1` the figure was 2180 nM; with `COc1cccc(-c2ccc(S(=O)(=O)N(CCc3ccccc3OC)CC(=O)NCc3ccc(CN)cc3)s2)c1`, 9400 nM; with `CC(CN(CC(=O)NCc1ccc(CN)cc1)S(=O)(=O)c1ccc(-c2ccccc2Cl)cc1)c1ccccc1` (stereo not drawn), 220 nM.
Turning to `C[C@H](CN(CC(=O)NCc1ccc(CN)cc1)S(=O)(=O)c1ccc(-c2ccccc2F)cc1)c1ccccc1`, the EC50 came to 350 nM.
With `C[C@@H](CN(CC(=O)NCc1ccc(CN)cc1)S(=O)(=O)c1ccc(-c2cccc(F)c2)cc1)c1ccccc1` [Compound 203] the figure was 1380 nM; with `C[C@@H](CN(CC(=O)NCc1ccc(CN)cc1)S(=O)(=O)c1ccc(-c2ccccc2S(=O)(=O)NC(C)(C)C)cc1)c1ccccc1`, 23500 nM.
With `C[C@@H](CN(CC(=O)NCc1ccc(CN)cc1)S(=O)(=O)c1ccc(-c2cccc(C(F)(F)F)c2)cc1)c1ccccc1` the figure was 510 nM; with `COc1ccccc1CCN(CC(=O)NCc1ccc(CN)cc1)S(=O)(=O)c1cc([N+](=O)[O-])c(Cl)s1`, not below 50000 nM; with `COc1ccc(-c2ccccc2S(=O)(=O)N(CCc2ccccc2OC)CC(=O)NCc2ccc(CN)cc2)cc1`, 13500 nM.
Consider `COc1ccccc1CCN(CC(=O)NCc1ccc(CN)cc1)S(=O)(=O)c1cccc(-c2cccc(C(F)(F)F)c2)c1`, for which the EC50 worked out at 2080 nM.
With `NCc1ccc(CNC(=O)CN(CCc2ccccn2)S(=O)(=O)c2ccc(-c3ccccc3Cl)cc2)cc1`, the EC50 is 820 nM.
With `Cc1ccccc1-c1ccc(S(=O)(=O)N(CC(=O)NCCCCCN)C[C@H](C)c2ccccc2)cc1`, the EC50 came to 250 nM.
In the case of `COc1ccccc1CN(CC(=O)N1CCNCC1)S(=O)(=O)c1ccc(-c2ccc(Cl)cc2)cc1`, the EC50 was not below 50000 nM.
In the case of `COc1ccc(NC(=O)C(C)(C)C)c(-c2ccc(S(=O)(=O)N(CC(=O)NCc3ccc(CN)cc3)C[C@H](C)c3ccccc3)cc2)c1`, the EC50 amounted to 20900 nM.
On to `COc1ccccc1CCN(CC(=O)NCc1ccc(CN)cc1)S(=O)(=O)c1ccc(-c2ccccc2C(F)(F)F)s1`, for which the EC50 was 2220 nM.
Turning to `C[C@@H](CN(CC(=O)NCc1ccc(CN)cc1)S(=O)(=O)c1ccc(-c2ccc(Cl)c(F)c2)cc1)c1ccccc1`, the EC50 was 860 nM.
For `COc1ccccc1CN(CC(=O)NCC1CCCC(CN)C1)S(=O)(=O)c1ccc(-c2ccccc2OC)cc1` (stereo not drawn), the EC50 is 370 nM.
`COc1ccccc1CN(CC(=O)N1CCNCC1)S(=O)(=O)c1ccc(-c2ccncc2)cc1`: the EC50 is not below 50000 nM.
On to `COc1ccccc1CCN(CC(=O)N1CCNCC1)S(=O)(=O)c1ccc(-c2ccccc2F)cc1`, for which the EC50 turned out to be 3760 nM.
With `C[C@H](CN(CC(=O)NCCCCCN)S(=O)(=O)c1ccc(-c2cccc(F)c2)cc1)c1ccccc1`, the EC50 came out at 2900 nM.
In the case of `NCc1ccc(CNC(=O)CN(CCc2ccccc2)S(=O)(=O)c2ccc(-c3cccc(F)c3)cc2)cc1`, the EC50 stood at 17000 nM.
Regarding `COc1ccccc1CN(CC(=O)N1CCNCC1)S(=O)(=O)c1ccc(-c2ccccc2F)cc1`, the EC50 was not below 50000 nM.
Take `COc1ccccc1CCN(CC(=O)NCc1ccc(CN)cc1)S(=O)(=O)c1ccccc1C(F)(F)F`: the EC50 stood at 8410 nM.
For `Cc1ccccc1-c1ccc(S(=O)(=O)N(CC(=O)NCCCCCCN)C[C@@H](C)c2ccccc2)cc1` the value was 230 nM; for `CC(=O)Nc1cccc(-c2ccc(S(=O)(=O)N(CC(=O)NCc3ccc(CN)cc3)C[C@H](C)c3ccccc3)cc2)c1`, 510 nM; for `COc1ccccc1CCN(CC(=O)NCc1ccc(CN)cc1)S(=O)(=O)c1ccccc1-c1ccc(Cl)cc1`, 12800 nM.
As for `Cc1c(Cl)cccc1-c1ccc(S(=O)(=O)N(CC(=O)NCc2ccc(CN)cc2)C[C@H](C)c2ccccc2)cc1`, the EC50 was found to be 120 nM.
In the case of `C[C@H](CN(CC(=O)N1CCC(C2CCNCC2)CC1)S(=O)(=O)c1ccc(-c2cccc(F)c2)cc1)c1ccccc1`, the EC50 turned out to be 1840 nM.
For `CCC(CN(CC(=O)NCc1ccc(CN)cc1)S(=O)(=O)c1ccc(-c2ccccc2Cl)cc1)c1ccccc1` (stereo not drawn) the value was 120 nM.
For `COc1ccccc1CCN(CC(=O)NCc1cccc(CN)c1)S(=O)(=O)c1ccc(-c2ccc(Cl)cc2Cl)cc1` the value was 900 nM; for `COc1ccccc1CN(CC(=O)NCCCCCCN)S(=O)(=O)c1ccc(-c2ccccc2C)cc1`, 890 nM.
Turning to `COc1ccccc1CCN(CC(=O)NCc1ccc(CN)cc1)S(=O)(=O)c1ccc(C)cc1`, the EC50 was determined as 23500 nM.
Turning to `COc1ccccc1CCN(CC(=O)NCc1ccc(CN)cc1)S(=O)(=O)c1cccc(-c2ccc(Cl)cc2)c1`, the EC50 is 8430 nM.
With `C[C@H](CN(CC(=O)NCc1ccc(CN)cc1)S(=O)(=O)c1ccc(C(C)(C)C)cc1)c1ccccc1` the figure was 3000 nM; with `NCCCCCCNC(=O)CN(CC(c1ccccc1)c1ccccc1)S(=O)(=O)c1ccc(-c2ccccc2Cl)cc1`, 5290 nM; with `C[C@@H](CN(CC(=O)NCc1ccc(CN)cc1)S(=O)(=O)c1ccc(-c2cc3ccccc3o2)cc1)c1ccccc1`, more than 50000 nM.
For `NCCCCCCNC(=O)CN(CCc1cccs1)S(=O)(=O)c1ccc(-c2ccccc2Cl)cc1`, the half-maximal effective concentration (EC50) was 110 nM.
`Cc1ccccc1CCN(CC(=O)NCCCCCCN)S(=O)(=O)c1ccc(-c2ccccc2Cl)cc1`: the EC50 was found to be 350 nM.
For `C[C@@H](CN(CC(=O)NCc1cccc(CN)c1)S(=O)(=O)c1ccc(-c2ccccc2Cl)cc1)c1ccccc1` the value was 310 nM; for `C[C@@H](CN(CC(=O)NCC1CCC(CN)CC1)S(=O)(=O)c1ccc(-c2cccc(F)c2)cc1)c1ccccc1` (stereo partly drawn), 340 nM.
As for `COc1ccccc1CCN(CC(=O)NCc1ccc(CN)cc1)S(=O)(=O)c1ccc(-c2ccc(C)cc2)s1`, the half-maximal effective concentration (EC50) stood at 31900 nM.
With `COc1ccc(C=O)cc1-c1ccc(S(=O)(=O)N(CC(=O)NCc2ccc(CN)cc2)C[C@H](C)c2ccccc2)cc1` the figure was more than 50000 nM; with `NCCCCCCNC(=O)CN(CCc1ccc(Cl)cc1Cl)S(=O)(=O)c1ccc(-c2ccccc2Cl)cc1`, 80 nM; with `Cc1cc(C)c(-c2ccc(S(=O)(=O)N(CC(=O)NCc3ccc(CN)cc3)C[C@@H](C)c3ccccc3)cc2)c(C)c1`, 220 nM.
With `COc1ccc(OC)c(-c2ccccc2S(=O)(=O)N(CCc2ccccc2OC)CC(=O)NCc2ccc(CN)cc2)c1` the figure was 10500 nM; with `COc1ccccc1CCN(CC(=O)N1CCNCC1)S(=O)(=O)c1ccc(-c2ccccc2Cl)cc1`, 4540 nM; with `COc1ccc(-c2ccc(S(=O)(=O)N(CC(=O)N3CCNCC3)Cc3ccccc3OC)cc2)c(OC)c1`, not below 50000 nM.
With `COc1ccccc1CCN(CC(=O)NCc1ccc(CN)cc1)S(=O)(=O)c1ccccc1-c1ccc(C(F)(F)F)cc1` the figure was 7450 nM; with `COc1ccccc1CCN(CC(=O)NCc1ccc(CN)cc1)S(=O)(=O)c1ccc(I)cc1`, 4320 nM; with `C[C@@H](CN(CC(=O)NCc1ccc(CN)cc1)S(=O)(=O)c1ccc(-c2cccc3c2Oc2ccccc2S3)cc1)c1ccccc1`, more than 50000 nM.
